# B1: recombinant IFN-β: recombinant IFN-β, type I interferon (protein, UniProt P01574 22-187, looked up)
# Interferon beta: MSYNLLGFLQRSSNFQCQKLLWQLNGRLEYCLKDRMNFDIPEEIKQLQQFQKEDAALTIYEMLQNIFAIFRQDSSSTGWNETIVENLLANVYHQINHLKTVLEEKLEKEDFTRGKLMSSLHLKRYYGRILHYLKAKEYSHCAWTIVRVEILRNFYFINRLTGYLRN
# System: PARP7 protein levels
# Experiment: Endogenous PARP7 protein levels in CT-26 cells
# Type: cell-based, mouse
molecule,measurement,value
B1,PARP7 levels after recombinant IFN-β,did not increase PARP7 levels

# — PMC9868104 (Cell chemical biology, 2022)
